# Assay: Volume of distribution at steady state in cynomolgus monkey at 20 mg/kg, iv measured upto 24 hrs by LC-MS/MS analysis
# Type: ADME, organism-based, Macaca fascicularis
# Settings: in vivo
compound,measurement,value
N#C[C@@]1(c2ccc3c(N)ncnn23)O[C@H](CO)[C@@H](O)[C@H]1O [GS-441524],Vdss,1.03 L/kg

# Source: ChEMBL document CHEMBL5321279 (J Med Chem, 2023)
